Laboratory results: ChEMBL document CHEMBL5653629, “Novel Class of Potent and Cellularly Active Inhibitors Devalidates MTH1 as Broad-Spectrum Cancer Target” (ACS Chem Biol, 2017)

Legend:
Assay in all cases: cells
MCF7 = settings: Homo sapiens, MCF7, 144 h
MDA-MB-231 = settings: Homo sapiens, MDA-MB-231, 144 h
SW480 = settings: Homo sapiens, SW480, 144 h
A549 = settings: Homo sapiens, A549, 144 h
HeLa = settings: Homo sapiens, 144 h
U2OS = settings: Homo sapiens, 144 h
NCI-H358 = settings: Homo sapiens, NCI-H358, 144 h
NCI-H460 = settings: Homo sapiens, NCI-H460, 144 h

Measured: GI50

CCNC(=O)c1cc2c(N3CCOC[C@@H]3C)ccnc2[nH]1
> 30 µM: all assays above
